In US6623933B1 (priority 1999, dated 2003) one finds EC50 data, which are given here for two compounds.

Protein sequences, listed by entry. Tags and fused reporters are not part of them. Residues count along the entry.
UniProt Q00959, 23-1464: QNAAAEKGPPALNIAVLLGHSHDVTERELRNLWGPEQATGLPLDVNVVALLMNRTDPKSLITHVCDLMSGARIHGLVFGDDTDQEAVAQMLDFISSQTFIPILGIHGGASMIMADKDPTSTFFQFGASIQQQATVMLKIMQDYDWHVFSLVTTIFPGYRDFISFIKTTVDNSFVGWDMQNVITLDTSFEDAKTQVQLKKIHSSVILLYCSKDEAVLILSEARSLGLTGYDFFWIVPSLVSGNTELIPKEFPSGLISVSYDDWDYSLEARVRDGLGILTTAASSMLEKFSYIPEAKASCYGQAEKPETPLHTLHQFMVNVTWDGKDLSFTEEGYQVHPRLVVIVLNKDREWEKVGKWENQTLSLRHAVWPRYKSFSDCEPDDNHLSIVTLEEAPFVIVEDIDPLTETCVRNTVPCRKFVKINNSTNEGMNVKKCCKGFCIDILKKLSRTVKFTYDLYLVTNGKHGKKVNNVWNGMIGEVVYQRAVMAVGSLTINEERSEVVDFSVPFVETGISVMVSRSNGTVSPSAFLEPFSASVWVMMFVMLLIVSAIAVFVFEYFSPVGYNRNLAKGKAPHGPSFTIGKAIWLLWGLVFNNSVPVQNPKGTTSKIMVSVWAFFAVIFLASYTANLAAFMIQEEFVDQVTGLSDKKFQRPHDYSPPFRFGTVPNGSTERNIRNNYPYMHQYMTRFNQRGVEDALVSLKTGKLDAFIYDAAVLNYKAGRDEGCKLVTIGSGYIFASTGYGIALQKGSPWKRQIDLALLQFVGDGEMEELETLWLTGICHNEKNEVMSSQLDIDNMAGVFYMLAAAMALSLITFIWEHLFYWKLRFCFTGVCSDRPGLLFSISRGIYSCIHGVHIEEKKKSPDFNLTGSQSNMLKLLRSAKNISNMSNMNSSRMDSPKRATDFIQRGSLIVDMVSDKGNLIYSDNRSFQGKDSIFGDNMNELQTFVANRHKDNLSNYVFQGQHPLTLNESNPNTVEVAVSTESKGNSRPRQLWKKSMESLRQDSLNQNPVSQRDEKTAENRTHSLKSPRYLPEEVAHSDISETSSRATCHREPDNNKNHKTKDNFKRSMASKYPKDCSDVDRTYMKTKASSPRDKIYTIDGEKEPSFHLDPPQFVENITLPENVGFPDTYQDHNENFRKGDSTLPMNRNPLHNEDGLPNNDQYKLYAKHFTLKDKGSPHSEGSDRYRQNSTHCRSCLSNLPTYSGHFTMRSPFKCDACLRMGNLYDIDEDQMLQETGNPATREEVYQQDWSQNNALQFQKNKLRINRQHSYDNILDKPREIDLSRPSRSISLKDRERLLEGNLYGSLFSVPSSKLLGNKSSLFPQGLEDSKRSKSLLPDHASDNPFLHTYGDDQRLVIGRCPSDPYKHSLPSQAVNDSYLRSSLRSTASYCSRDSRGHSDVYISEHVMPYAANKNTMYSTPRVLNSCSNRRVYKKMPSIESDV
UniProt Q00960, 27-1482: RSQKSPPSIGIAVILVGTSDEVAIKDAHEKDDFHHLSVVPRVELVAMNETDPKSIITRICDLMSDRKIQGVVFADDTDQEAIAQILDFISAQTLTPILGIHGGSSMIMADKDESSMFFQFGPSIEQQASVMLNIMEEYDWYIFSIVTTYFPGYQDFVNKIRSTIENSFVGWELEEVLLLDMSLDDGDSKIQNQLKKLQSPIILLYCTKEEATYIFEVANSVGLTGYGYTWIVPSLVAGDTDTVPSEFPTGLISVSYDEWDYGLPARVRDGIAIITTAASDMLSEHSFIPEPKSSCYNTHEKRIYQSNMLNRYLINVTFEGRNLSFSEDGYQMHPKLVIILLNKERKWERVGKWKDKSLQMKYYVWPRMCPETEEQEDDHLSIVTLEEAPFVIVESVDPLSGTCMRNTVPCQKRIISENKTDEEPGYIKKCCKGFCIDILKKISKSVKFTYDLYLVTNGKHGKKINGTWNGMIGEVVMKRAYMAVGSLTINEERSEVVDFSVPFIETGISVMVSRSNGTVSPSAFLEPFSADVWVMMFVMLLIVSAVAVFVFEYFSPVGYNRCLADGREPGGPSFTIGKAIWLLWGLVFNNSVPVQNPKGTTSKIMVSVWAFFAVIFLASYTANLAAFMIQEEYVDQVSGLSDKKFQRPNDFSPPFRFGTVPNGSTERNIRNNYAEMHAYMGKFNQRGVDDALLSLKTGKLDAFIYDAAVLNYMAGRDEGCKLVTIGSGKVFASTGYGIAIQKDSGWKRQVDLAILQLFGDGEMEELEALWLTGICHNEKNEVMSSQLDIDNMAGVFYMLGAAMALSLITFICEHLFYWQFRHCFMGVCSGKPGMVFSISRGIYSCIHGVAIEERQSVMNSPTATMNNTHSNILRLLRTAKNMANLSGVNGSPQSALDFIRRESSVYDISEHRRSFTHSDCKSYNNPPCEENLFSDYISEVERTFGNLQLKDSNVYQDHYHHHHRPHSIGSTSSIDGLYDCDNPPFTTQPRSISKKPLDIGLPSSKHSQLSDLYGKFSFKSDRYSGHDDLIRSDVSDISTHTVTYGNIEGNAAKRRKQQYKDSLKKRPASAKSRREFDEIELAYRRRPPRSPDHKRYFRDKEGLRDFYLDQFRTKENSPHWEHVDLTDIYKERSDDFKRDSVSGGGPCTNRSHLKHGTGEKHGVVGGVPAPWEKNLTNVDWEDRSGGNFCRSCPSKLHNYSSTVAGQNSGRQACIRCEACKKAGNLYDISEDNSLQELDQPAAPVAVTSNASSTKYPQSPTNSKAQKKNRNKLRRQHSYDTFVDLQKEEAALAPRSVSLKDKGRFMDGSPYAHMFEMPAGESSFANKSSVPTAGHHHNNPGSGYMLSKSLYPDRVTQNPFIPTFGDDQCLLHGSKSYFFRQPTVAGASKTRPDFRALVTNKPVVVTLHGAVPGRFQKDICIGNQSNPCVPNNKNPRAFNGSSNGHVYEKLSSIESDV
UniProt Q00961, 20-1237: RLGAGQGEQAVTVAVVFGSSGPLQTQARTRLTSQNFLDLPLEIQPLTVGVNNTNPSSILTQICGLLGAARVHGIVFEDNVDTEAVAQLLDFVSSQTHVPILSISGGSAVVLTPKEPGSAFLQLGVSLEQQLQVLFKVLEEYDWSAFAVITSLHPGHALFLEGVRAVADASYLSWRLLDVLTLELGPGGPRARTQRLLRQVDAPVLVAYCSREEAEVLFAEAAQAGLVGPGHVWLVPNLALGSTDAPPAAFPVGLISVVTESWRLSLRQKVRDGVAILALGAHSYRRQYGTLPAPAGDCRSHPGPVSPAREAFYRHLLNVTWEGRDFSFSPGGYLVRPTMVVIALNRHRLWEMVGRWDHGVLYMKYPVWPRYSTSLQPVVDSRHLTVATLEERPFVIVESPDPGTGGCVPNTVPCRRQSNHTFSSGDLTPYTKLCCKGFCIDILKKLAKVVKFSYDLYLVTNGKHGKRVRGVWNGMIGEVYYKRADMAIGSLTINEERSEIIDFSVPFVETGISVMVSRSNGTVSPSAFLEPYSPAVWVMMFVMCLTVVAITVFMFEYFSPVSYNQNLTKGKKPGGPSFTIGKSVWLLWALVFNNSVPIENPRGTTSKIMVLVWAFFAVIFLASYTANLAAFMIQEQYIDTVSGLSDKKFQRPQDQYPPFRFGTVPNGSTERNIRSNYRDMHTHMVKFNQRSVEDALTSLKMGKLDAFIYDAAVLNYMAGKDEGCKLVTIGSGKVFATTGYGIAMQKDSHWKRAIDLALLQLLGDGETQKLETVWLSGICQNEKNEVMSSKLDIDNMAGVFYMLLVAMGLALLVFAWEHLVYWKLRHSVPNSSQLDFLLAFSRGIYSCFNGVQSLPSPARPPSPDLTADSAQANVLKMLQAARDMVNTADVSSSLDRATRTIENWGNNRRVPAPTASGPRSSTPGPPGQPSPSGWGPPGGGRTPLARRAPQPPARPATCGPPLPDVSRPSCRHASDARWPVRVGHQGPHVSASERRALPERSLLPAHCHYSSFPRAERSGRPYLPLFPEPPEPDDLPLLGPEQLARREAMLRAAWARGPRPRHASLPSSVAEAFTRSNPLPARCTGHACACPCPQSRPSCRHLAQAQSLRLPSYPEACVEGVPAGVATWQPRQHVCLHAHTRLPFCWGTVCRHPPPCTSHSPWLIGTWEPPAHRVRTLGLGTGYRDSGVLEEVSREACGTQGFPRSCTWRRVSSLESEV
UniProt P19490, 19-907: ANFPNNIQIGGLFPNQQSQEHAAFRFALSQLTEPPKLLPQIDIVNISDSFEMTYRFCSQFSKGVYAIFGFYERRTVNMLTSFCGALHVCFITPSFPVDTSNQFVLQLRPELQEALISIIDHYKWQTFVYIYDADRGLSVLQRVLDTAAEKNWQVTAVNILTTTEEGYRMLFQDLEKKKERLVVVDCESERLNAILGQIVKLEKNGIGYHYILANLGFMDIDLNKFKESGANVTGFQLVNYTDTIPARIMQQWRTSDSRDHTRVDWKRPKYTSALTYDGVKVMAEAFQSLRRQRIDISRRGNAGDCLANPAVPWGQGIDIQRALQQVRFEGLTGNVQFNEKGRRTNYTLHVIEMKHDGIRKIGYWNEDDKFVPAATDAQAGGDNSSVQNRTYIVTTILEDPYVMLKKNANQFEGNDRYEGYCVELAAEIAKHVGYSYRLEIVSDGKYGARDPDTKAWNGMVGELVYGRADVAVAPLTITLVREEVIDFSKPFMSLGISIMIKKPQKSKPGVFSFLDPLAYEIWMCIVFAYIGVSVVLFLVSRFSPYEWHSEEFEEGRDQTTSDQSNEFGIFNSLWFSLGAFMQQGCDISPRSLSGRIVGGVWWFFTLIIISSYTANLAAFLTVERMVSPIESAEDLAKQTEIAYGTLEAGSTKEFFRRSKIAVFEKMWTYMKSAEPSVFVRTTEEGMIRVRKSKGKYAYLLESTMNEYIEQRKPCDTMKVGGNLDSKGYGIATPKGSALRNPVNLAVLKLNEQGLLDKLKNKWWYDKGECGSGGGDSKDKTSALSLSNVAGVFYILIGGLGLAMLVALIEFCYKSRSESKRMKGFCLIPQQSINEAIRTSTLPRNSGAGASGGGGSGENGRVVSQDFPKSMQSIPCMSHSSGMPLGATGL
UniProt Q62645, 28-1323: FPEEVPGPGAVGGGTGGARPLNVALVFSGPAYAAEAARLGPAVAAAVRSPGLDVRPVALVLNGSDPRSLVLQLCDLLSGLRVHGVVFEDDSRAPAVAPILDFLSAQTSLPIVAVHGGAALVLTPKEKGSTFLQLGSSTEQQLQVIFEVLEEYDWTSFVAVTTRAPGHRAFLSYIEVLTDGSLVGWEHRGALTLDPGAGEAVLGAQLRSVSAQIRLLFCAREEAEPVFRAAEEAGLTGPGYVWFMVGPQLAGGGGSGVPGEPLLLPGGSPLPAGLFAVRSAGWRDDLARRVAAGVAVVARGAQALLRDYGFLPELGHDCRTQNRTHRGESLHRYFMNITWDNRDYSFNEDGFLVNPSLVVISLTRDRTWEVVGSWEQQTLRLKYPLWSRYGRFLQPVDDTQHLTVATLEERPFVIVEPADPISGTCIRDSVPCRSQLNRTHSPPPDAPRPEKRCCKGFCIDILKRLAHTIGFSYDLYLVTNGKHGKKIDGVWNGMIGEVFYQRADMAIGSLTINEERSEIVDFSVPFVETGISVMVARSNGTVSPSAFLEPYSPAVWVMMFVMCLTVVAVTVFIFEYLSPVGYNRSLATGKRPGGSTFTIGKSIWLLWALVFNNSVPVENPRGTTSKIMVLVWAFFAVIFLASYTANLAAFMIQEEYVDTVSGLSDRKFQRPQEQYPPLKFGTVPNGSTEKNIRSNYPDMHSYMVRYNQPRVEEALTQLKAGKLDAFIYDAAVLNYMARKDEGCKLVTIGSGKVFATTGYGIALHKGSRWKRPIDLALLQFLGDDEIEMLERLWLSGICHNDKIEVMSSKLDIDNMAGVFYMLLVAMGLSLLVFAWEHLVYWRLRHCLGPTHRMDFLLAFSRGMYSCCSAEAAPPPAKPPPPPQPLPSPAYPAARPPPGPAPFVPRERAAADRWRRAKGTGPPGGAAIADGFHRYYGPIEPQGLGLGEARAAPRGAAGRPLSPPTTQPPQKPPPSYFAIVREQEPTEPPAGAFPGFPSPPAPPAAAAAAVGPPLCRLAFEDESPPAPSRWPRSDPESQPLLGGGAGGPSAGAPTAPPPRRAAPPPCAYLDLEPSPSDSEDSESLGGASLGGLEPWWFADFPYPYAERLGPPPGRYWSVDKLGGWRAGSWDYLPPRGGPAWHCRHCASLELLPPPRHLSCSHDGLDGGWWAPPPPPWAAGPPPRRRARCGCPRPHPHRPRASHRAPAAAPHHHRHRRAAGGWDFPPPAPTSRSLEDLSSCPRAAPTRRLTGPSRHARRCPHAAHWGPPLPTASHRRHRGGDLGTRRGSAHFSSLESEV

Where two headings read alike, the source gives them in different places.

For experiment [1], the target named is T1, NR1100+NR2A NMDA receptor (Rattus norvegicus, UniProt P35439+Q00959).
T1 construct: expressed in transfected cells; host or cells: Xenopus oocytes co-injected with NR1100 and NR2A cRNA
The experiment in a line: NMDA-induced currents, Xenopus oocytes, Example 1. It counts as cell-based. An excerpt: (§1) Plasmids were obtained from the following individuals: Dr. Suzanne Zukin (Albert Einstein College of Medicine, Bronx, N.Y.), NR1100; Dr. Shigetada Nakanishi (Kyoto University Faculty of Medicine, Kyoto, Japan), NR2A; Dr. Stephen Heinemann (Salk Institute, San Diego, Calif.), GluR1 (flop), GluR3 (flop), and GluR6. Plasmids were linearized with BamH1 (NR1100), XhoI (NR2A, GluR1, GluR3) or XbaI (GluR6) prior to in vitro transcription with T3 (GluR1, GluR3, GluR6) or T7 (NR1100, NR2A) RNA polymerase using the Message Machine kit (Ambion, Austin, Tex.). […] RNA solutions (50-70 nl) were injected into oocytes for delivery of NR1100 (5 ng), NR1100:NR2A (1:10 ng), GluR1 (5 ng). GluR3 (5 ng), or GluR6 (20 ng). Oocytes were incubated in ND96 at 18-20° C. for 3-7 days prior to electrophysiological recording.
(§2) Steroid solutions were prepared as 70-100 mM frozen stocks in dimethyl sulfoxide (DMSO). The final DMSO concentration of all recording solutions was between 0.1% to 0.5% and was constant within an experiment.
(§3) Perfusion control and data acquisition were carried out using an automated oocyte electrophysiology workstation that was developed for the rapid collection of concentration-response data and real-time waveform analysis (Yaghoubi et al., Soc. Neurosci. Abstr. 20: 1109 (1995)). […]
(§4) Results are expressed as mean±S.E.M. Statistical comparisons were made using Student's t-test.

Experiment [2] relates to primary cultures of rat hippocampal neurons. The experiment in a line: NMDA-induced neuronal death, trypan blue exclusion. Type of experiment: cell-based. To be noted: chronic 16 hour NMDA exposure; DMSO vehicle. The method, then: Principally neuronal cultures were prepared from hippocampal tissue of fetal Sprague-Dawley rats on day 18 of embryonic development, as previously described (Brewer et al., Brain Research 494: 65-74 (1989)). Briefly, hippocampal cells were dissociated by trituration in Ca^2+/Mg^2+-free Hank's basic salt solution (Gibco) supplemented with 4.2 mM bicarbonate, 1 mM sodium pyruvate, 20 mM HEPES, 3 mg/ml bovine serum albumin (BSA). Dissociated cells were then pelleted by centrifugation (500×g, 4 min). […] Cells were then plated onto poly-L-lysine-coated 24-well culture dishes (Nunclon) at a density of 15,000 cell/cm^2 and maintained in a humidified atmosphere containing 5% CO2/95% air at 37° C. After 48 h, nonneuronal cell division was inhibited by a 48 h exposure to 1 μM cytosine arabinoside. […]
The ability of neurons to exclude trypan blue was used to quantitate cell viability (Dawson et al., Proc Natl Acad Sci USA 88: 6368-6371 (1991)). […] The number of stained and unstained neurons were counted in 4 high-power fields per culture well, using an inverted phase contrast microscope under both bright field and phase contrast settings. […] Percent cell death is expressed as follows: (number of trypan blue stained neurons)/(total number of neurons)×100%.
All data are expressed as mean±standard error of the mean. Statistical significance was evaluated using 95% confidence limits unless otherwise noted.

A further experiment concerns the target NR1/NR2B (NR1100) (Rattus norvegicus, UniProt P35439+Q00960).
A further experiment concerns the target NR1/NR2C (NR1100) (Rattus norvegicus, UniProt P35439+Q00961).
The target in another experiment is T2, GluR1 AMPA receptor (Rattus norvegicus, UniProt P19490).
T2 construct: expressed in transfected cells; host or cells: Xenopus oocytes injected with GluR1 cRNA
The experiment in a line: Kainate-induced currents, Xenopus oocytes injected with GluR1 cRNA. Type of experiment: cell-based. To be noted: 100 μM kainate, read-out: PS EC50, inhibition of kainate-induced current.
Excerpt: as §1, §2, §3, §4

In the next experiment the target is T3, GluR3 AMPA receptor (Rattus norvegicus, UniProt P19492).
T3 construct: expressed in transfected cells; host or cells: Xenopus oocytes injected with GluR3 cRNA
The experiment in a line: Kainate-induced currents, Xenopus oocytes injected with GluR3 cRNA. Type of experiment: cell-based. To be noted: 100 μM kainate, read-out: PS EC50, inhibition of kainate-induced current.
Excerpt: as §1, §2, §3, §4

The target in the next experiment is T4, GluR6 kainate receptor (Rattus norvegicus, UniProt P42260).
T4 construct: expressed in transfected cells; host or cells: Xenopus oocytes injected with GluR6 cRNA (concanavalin A treated)
The experiment in a line: Kainate-induced currents, Xenopus oocytes injected with GluR6 cRNA. It counts as cell-based. To be noted: 10 μM kainate, maximum inhibition constrained to 100%, read-out: PS EC50, inhibition of kainate-induced current.
Excerpt: as §1, §2, §3, §4

For another experiment, the target named is T5, NR1100 NMDA receptor (Rattus norvegicus, UniProt P35439).
T5 construct: expressed in transfected cells; host or cells: Xenopus oocytes injected with NR1100 cRNA only
The experiment in a line: NMDA-induced currents, Xenopus oocytes injected with NR1100 cRNA only, Example 1. It counts as cell-based. Particulars: 300 μM NMDA, read-out: steroid EC50, modulation of NMDA response.
Excerpt: as §1, §2, §3, §4

For the next experiment, the target named is NR1/NR2A (NR1100) (Rattus norvegicus, UniProt P35439+Q00959). Particulars: read-out: PS EC50, 80 μM NMDA, 10 μM glycine.
The target in the next experiment is NR1/NR2D (NR1100) (Rattus norvegicus, UniProt P35439+Q62645). To be noted: read-out: PS EC50, 10 μM NMDA, 10 μM glycine.
Setting [3] is: read-out: PS EC50, […] μM NMDA, 10 μM glycine.

`CN[C@H](CC(=O)O)C(=O)O` [NMDA, N-methyl-D-aspartate]: the EC50 in [1] (control, read-out: NMDA EC50) stood at 29 µM; in [2] it was 12 µM; at NR1/NR2B (NR1100) (read-out: agonist EC50, no PS), 25 µM; at NR1/NR2C (NR1100) (read-out: agonist EC50, no PS) it was 24 µM.
On to pregnenolone sulfate [PS], for which the EC50 came to 43 µM at GluR1 AMPA receptor; 12 µM on GluR3 AMPA receptor; 80 µM at GluR6 kainate receptor; 32 µM in [1] (100 μM NMDA, read-out: steroid EC50, modulation of NMDA response); 26 µM on NR1100 NMDA receptor; 21 µM at NR1/NR2A (NR1100). For the same compound, the EC50 turned out to be 33 µM on NR1/NR2B (NR1100) (setting [3]), 112 µM on NR1/NR2C (NR1100) (setting [3]) and 118 µM on NR1/NR2D (NR1100).

The term EC50 denotes the concentration needed to bring the measured effect to its halfway point.
